{
  "source": "patent US20260158136A1",
  "about": "“MEDICAMENT FOR TREATMENT AND/OR PREVENTION OF CANCER” (TORAY INDUSTRIES, INC., priority 2022, published 2026)",
  "system": "human colon cancer cell line (HCT116)",
  "test": "THP-1-mediated phagocytic activity against HCT116, anti-CAPRIN-1, anti-CD20 or anti-HER-2 antibody alone or with palbociclib (Example 4)",
  "assay_type": "cell-based",
  "method": "Specifically, in the palbociclib combination test group, the indicated palbociclib was applied to human cancer cells, and then the cancer cells were cocultured with human monocytic cells (THP-1) in the presence of the anti-CAPRIN-1 antibody, anti-CD20 antibody or anti-HER-2 antibody at 1 M, and the antibody-mediated phagocytic activity against the cancer cells by THP-1 was evaluated.\nThe human-derived cancer cell used was a colon cancer cell line HCT116. On a 6-well plate, the human-derived cancer cells were cultured for 2 days in the presence of the respective drugs used in combination for the palbociclib combination test group. Specifically, palbociclib was added at a concentration of 10 μM to HCT 116. As a control, a test group without a drug used in combination, in which only the anti-CAPRIN-1 antibody, anti-CD20 antibody or anti-HER-2 antibody was added, was established. In the control group, the cancer cells were cultured for 2 days without addition of palbociclib beforehand.\nEach cancer cell line after the culture was dissociated with TrypLE Express (Thermo), and the cancer cells were stained by the addition of calcein-AM at a final concentration of 0.04 μg/mL and incubation at 37° C. for 10 minutes. Next, the cells were dispensed at 1×10^4 cancer cells per well to a 96-well plate, and the anti-CAPRIN-1 antibody, anti-CD20 antibody or anti-HER-2 antibody at a final concentration of 1 μg/mL and 10×10^5 THP-1 cells were added to each well, followed by culture at 37° C. for 1 hour under a condition of 5% CO2. […] Further, dead cells were stained with propidium iodide (PI) (final concentration: 0.1 μg/mL), followed by the measurement of fluorescence from the cells by flow cytometry. […] Thus, the phagocytic activity in this evaluation system was calculated as the ratio (%) of APC-positive/calcein-AM-positive cells to the whole calcein-AM-positive population.",
  "data": [
    {"substance": "anti-HER-2 antibody: anti-HER-2 antibody (\"Herceptin\") purchased from Chugai Pharmaceutical Co., Ltd.", "values": [
      {"measurement": "effect of palbociclib combination on phagocytic activity compared with antibody without a drug used in combination", "setting": "palbociclib 10 μM, Dunnett's test, FIG. 4", "value": "not remarkably increased"},
      {"measurement": "phagocytic activity against cancer cells", "setting": "palbociclib combination test group: HCT116 cultured 2 days with palbociclib 10 μM, then antibody at final concentration 1 μg/mL + THP-1, 1 h", "value": "≤ 18", "unit": "%"},
      {"measurement": "phagocytic activity against cancer cells", "setting": "test group without a drug used in combination: antibody only, 1 μg/mL + THP-1, 1 h", "value": "≤ 10", "unit": "%"}
    ]}
  ]
}
